Laboratory results as given in ChEMBL document CHEMBL2010689 (J Med Chem, 2012).

By UniProt entry, the sequences of proteins in these tests, tags left out. Where a name states a change or a piece, a line headed by the entry shows the natural chain unless it says otherwise.
UniProt Q02763: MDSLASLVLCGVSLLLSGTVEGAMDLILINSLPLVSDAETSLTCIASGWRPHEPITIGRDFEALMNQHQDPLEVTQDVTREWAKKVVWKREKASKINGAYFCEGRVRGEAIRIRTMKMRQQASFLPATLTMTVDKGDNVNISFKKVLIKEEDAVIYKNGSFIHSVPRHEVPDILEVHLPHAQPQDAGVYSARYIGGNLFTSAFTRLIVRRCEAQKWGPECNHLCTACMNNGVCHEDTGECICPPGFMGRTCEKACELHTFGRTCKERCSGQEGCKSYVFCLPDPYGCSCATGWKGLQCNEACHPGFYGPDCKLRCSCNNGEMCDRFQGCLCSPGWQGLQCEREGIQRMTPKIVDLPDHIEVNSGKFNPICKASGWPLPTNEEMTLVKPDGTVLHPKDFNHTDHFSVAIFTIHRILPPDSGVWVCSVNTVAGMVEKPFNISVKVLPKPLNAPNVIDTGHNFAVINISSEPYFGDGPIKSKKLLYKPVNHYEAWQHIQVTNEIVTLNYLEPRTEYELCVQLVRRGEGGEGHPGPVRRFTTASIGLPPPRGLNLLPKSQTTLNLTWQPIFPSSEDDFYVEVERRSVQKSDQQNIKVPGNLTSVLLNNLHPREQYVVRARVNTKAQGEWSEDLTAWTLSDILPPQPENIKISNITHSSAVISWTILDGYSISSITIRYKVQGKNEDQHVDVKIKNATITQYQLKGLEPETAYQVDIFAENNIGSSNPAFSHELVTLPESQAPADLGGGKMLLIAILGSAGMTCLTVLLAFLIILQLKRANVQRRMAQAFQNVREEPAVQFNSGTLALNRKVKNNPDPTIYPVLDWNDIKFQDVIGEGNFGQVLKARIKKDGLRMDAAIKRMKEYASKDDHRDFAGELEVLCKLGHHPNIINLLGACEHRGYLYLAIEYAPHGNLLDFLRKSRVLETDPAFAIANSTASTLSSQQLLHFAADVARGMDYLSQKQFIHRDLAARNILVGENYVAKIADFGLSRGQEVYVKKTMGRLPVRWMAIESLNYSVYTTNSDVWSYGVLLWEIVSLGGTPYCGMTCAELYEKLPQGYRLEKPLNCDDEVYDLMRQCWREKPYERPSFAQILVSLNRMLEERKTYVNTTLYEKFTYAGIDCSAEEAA

Key:
Angiopoietin-1 receptor [1] = target: T1, Angiopoietin-1 receptor (Homo sapiens, UniProt Q02763)
Angiopoietin-1 receptor [2] = target: T1, Angiopoietin-1 receptor; assay: Inhibition of human Tie2 expressed in porcine PAE145 cells cotransfected with chimeric rat TRK-A/KDR receptor after 1 hr by immunofluorescence assay; type: cell-based

Compound `CC(C)Cn1c2ccc(Nc3ncccn3)cc2c2c3c(c4c(c21)CCc1nn(C)cc1-4)C(=O)NC3` [CEP-11981] has an IC50 (Angiopoietin-1 receptor [1]) of 22 nM and an IC50 (Angiopoietin-1 receptor [2]) of 50 nM.
